Laboratory results from patent publication US20150219624A1, “METHODS FOR IDENTIFYING ANTI-CANCER COMPOUNDS” (MEMORIAL SLOAN KETTERING CANCER CENTER, priority 2013, published 2015).

Assay: In vivo toxicity studies (body and organ weights, hematology, clinical chemistry, histopathology)
Description: Toxicity studies. Eight week-old C57Bl/6NTac female mice were randomly assigned to either control or treatment groups. Each treatment group received one daily dose of test article through i.p. injection over 5 consecutive days. Toxicity was monitored by weight loss and daily clinical observation for the 14 days following test article administration. 24 hours after the last test article administration 4 mice in each group were sacrificed and clinical chemistry, hematology and tissue specific histopathology were done at autopsy. The remaining mice (n=2 per group) were kept under observation for an additional 13 days; at that point all mice were sacrificed and clinical chemistry, hematology and tissue specific histopathology were done at time of autopsy.
D) KOPT-K1 xenograft studies.

[1] = 0.2 mg/kg Female, Day 19, individual animals
[2] = 0.2 mg/kg, female, Day 5, individual animals

(±)-CR-31-B
Na/K, Mean (0.2 mg/kg Female, Day 5, group mean, N 4): 35.5 Ratio | Na/K, Mean (0.2 mg/kg Female, Day 19, group mean, N 2): 39.5 Ratio | 2D. Individual chemistry, column 9 (head not shown; probably A/G ratio) [1]: 1.6 | Na/K [1]: 42 Ratio and 37 Ratio | A/G Ratio % ChVh (0.2 mg/kg, female, Day 5, % change of mean vs vehicle): 0.0% | A/G Ratio (0.2 mg/kg, female, Day 5, group mean): 1.7 | A/G Ratio [2]: 1.8 and 1.7 (2×) and 1.5 | Na/K [2]: 33 Ratio and 37 Ratio and 34 Ratio and 38 Ratio

Values joined by “and” are separate entries in the source; they are usually repeats but may differ in a detail not shown here. Identical values can stand only once.
